Test results reported in patent publication US7989417B2, “Linkers for radiopharmaceutical compounds” (Bracco Imaging S.p.A., priority 2003, dated 2011).

Target: human serum albumin (Homo sapiens, UniProt P02768)
Assay: Binding to human serum albumin by ultrafiltration
Conditions: 1 nM insulin solution in 0.6 mM human serum albumin, spiked with 125I-labeled insulin
Experimental: Binding to human serum albumin is determined by ultrafiltration according to Whitlam J. B. & Brown K. F.: J. Pharm. Sci. 70, 146-150, 1981, applying 1 nM bovine insulin solution in 0.6 mM human serum albumin, spiked with ^125I-labeled insulin. 95% of the insulin is bound. It is evident that such binding to albumin will reduce the renal elimination of the modified insulin (Compounds B and D) relative to that of native insulin.

With “Bovine 1-[[(3β,5β,12α)-23-[(1,1-dimethyl)ethoxycarbonyl]-12-hydroxy-24-norcholan-3-yl]amino]carbonyl-3,5-bis[[4-(insulin-N^εB29-yl)-1,4-dioxobutyl]amino]benzene [Compound D]” the “bound to human serum albumin” value was 95%.
